46 compounds from US9604926B2 (THE UNIVERSITY OF MISSISSIPPI, priority 2007, dated 2017) can be followed below.

The chains behind the UniProt entries cited, without tags or fusion partners. Where a name states a change or a piece, a line headed by the entry shows the natural chain unless it says otherwise.
UniProt Q9R0C9, whole entry: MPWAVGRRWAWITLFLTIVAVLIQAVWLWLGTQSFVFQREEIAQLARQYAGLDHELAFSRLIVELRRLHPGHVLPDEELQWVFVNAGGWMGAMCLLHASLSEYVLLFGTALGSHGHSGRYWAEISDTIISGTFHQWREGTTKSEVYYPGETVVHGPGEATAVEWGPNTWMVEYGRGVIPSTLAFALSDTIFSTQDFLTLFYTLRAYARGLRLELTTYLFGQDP
UniProt Q5U3Y7: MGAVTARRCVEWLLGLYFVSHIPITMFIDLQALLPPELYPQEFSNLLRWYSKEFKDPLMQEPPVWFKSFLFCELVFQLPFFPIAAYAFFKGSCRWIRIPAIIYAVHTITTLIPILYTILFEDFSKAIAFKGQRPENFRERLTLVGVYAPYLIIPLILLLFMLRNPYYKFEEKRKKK

Like-named read-outs stand apart in the source and are kept apart here.

The target in one test is σ-1 receptor (Rattus norvegicus (Rat), UniProt Q9R0C9). Briefly: σ-1 receptor binding in rat brain homogenates ([3H](+)-pentazocine).
Another test concerns the target σ-2 receptor (Rattus norvegicus (Rat), UniProt Q5U3Y7). Briefly: σ-2 receptor binding in rat brain homogenates ([3H]DTG plus (+)-pentazocine). Particulars: compound listing tables.
Where [1] appears, read: read-out: Ki (nM) σ1, compound listing tables.
The mark [2] stands for this setting: read-out: Ki (nm) σ1, compound listing tables.
Where [3] appears, read: read-out: σ-1 (Ki), rat brain homogenates.

The term Ki denotes a dissociation constant, usually derived from enzyme kinetics or from competition with a known ligand. Regarding `Cn1c(=O)n(CCCCN2CCN(c3ccc(F)cc3)CC2)c2cc(N=C=S)ccc21` [CM 617], at σ-1 receptor (setting [1]), the inhibition constant (Ki) turned out to be 97.4 ± 6.2 nM.

With `O=c1oc2ccccc2n1CCCCN1CCCCC1` [SN-60], the Ki on σ-1 receptor (setting [1]) was found to be 12.1 nM.

Turning to `CCc1ccc2c(c1)oc(=O)n2CCCCN1CCN(C2CCCCC2)CC1` [CM 146], the results for the Ki on σ-1 receptor (setting [1]) and at σ-2 receptor (read-out: Ki (nM) σ2) were 2.18 ± 0.14 nM and 2.56 ± 1.22 nM, respectively.

With `O=c1oc2ccccc2n1CCCCN1CC=C(c2ccc(Cl)cc2)CC1` [CM 165], the Ki at σ-1 receptor (setting [1]) turned out to be 2.4 ± 0.38 nM.

For `Cn1c(=O)n(CCCCN2CCN(c3ccc(F)cc3)CC2)c2ccccc21` [CM 397], the Ki at σ-1 receptor (setting [1]) was determined as 415 ± 26.1 nM.

On to `Cn1c(=O)n(CCCCN2CCN(c3ccc(F)cc3)CC2)c2cc([N+](=O)[O-])ccc21` [CM 608], for which the Ki at σ-1 receptor (setting [1]) was 15.5 ± 1.75 nM.

For `O=c1sc2cc(F)ccc2n1CCCCN1CCN(C2CCCCC2)CC1` [AZ-68], the Ki on σ-1 receptor (setting [2]) turned out to be 2.01 ± 0.44 nM.

Regarding `O=c1oc2ccccc2n1CCCCN1CCN(Cc2ccccc2)CC1` [CM 159], at σ-1 receptor (setting [1]), the Ki worked out at 4.44 ± 0.88 nM.

As to `O=c1oc2ccccc2n1CCCCN1CCN(c2ccc(F)cc2)CC1` [CM 170], the inhibition constant (Ki) on σ-1 receptor (setting [1]) was 7.59 ± 0.08 nM; on σ-2 receptor (read-out: Ki (nM) σ2), 0.7 ± 0.11 nM.

Consider `CC(=O)c1ccc2c(c1)oc(=O)n2CCCCN1CCN(C2CCCCC2)CC1` [CM 142], for which the results for the Ki on σ-1 receptor (setting [1]) and on σ-2 receptor (read-out: Ki (nM) σ2) were 46.4 ± 8.06 nM and 7.04 ± 0.79 nM, respectively.

Consider `Cn1c(=O)n(CCCCN2CCN(c3ccc(F)cc3)CC2)c2cc(N)ccc21` [CM 609], for which, on σ-1 receptor (setting [1]), the inhibitory constant (Ki) was 23.4 ± 2.63 nM.

As to `CC(=O)c1ccc2c(c1)oc(=O)n2CCCCN1[C@H](C)CN(c2ccc(F)cc2)C[C@@H]1C` [CM 666], the Ki on σ-1 receptor (setting [1]) stood at 21.2 ± 2.34 nM; on σ-2 receptor (read-out: Ki (nM) σ2), 14.9 ± 0.52 nM.

As for `CCC(=O)c1ccc2oc(=O)n(CCN3CCCCCC3)c2c1` [SN-71], the Ki on σ-1 receptor (setting [1]) is 115 nM.

With `O=c1oc2ccccc2n1CCCCN1CCN(CC2CCCCC2)CC1` [CM 171], the inhibitory constant (Ki) on σ-1 receptor (setting [1]) came out at 0.94 ± 0.13 nM.

Take `Fc1ccc2c(c1)sc(=S)n2CCCCN1CCN(C2CCCCC2)CC1` [AZ-78]: the Ki at σ-1 receptor (setting [2]) was 7.21 ± 1.2 nM; at σ-2 receptor (read-out: Ki (nm) σ2), 0.5 ± 0.3 nM.

As to `O=c1n(CCCCN2CCN(C3CCCCC3)CC2)c2ccccc2n1-c1ccc(F)cc1` [CM 325], the inhibition constant Ki came out at 5.04 ± 0.66 nM on σ-1 receptor (setting [1]) and 2.12 ± 0.75 nM on σ-2 receptor (read-out: Ki (nM) σ2).

Take `CCCc1ccc2oc(=O)n(CCN3CCCCCC3)c2c1` [SN-72]: at σ-2 receptor (read-out: Ki (nM) σ2), the Ki was 1810 nM.

In the case of `CC(CCCn1c(=O)sc2ccccc21)N1CCN(C2CCCCC2)CC1` (centres unmarked) [AZ-57], the figures for the inhibition constant (Ki) on σ-1 receptor (setting [2]) and on σ-2 receptor (read-out: Ki (nm) σ2) were 8.73 ± 1.32 nM and 3.15 ± 0.19 nM, respectively.

Take `O=c1oc2cc(Br)ccc2n1CCCCN1CCN(C2CCCCC2)CC1` [CM 138]: the inhibition constant Ki on σ-1 receptor (setting [1]) was found to be 7.87 ± 0.19 nM; at σ-2 receptor (read-out: Ki (nM) σ2), 4.47 ± 0.42 nM.

Regarding `CCCc1ccc2c(c1)sc(=O)n2CCN1CCN(C2CCCCC2)CC1` [SC-6], the Ki was determined as 2.15 ± 0.25 nM at σ-1 receptor (setting [2]) and 2.43 ± 0.09 nM on σ-2 receptor (read-out: Ki (nm) σ2).

For the compound `O=C1CCN(CCCCn2c(=O)oc3ccccc32)CC1` [CM 152], at σ-1 receptor (setting [1]), the inhibitory constant (Ki) was 19.3 ± 0.9 nM.

On to `O=c1oc2ccccc2n1CCCCCCN1CCN(Cc2ccccc2)CC1` [SN-61], for which the inhibition constant (Ki) is 4.68 nM on σ-1 receptor (setting [1]) and 107 nM on σ-2 receptor (read-out: Ki (nM) σ2).

Consider `O=c1oc2ccccc2n1CCCN1CCN(C2CCCCC2)CC1` [CM 124], for which the Ki on σ-1 receptor (setting [1]) and at σ-1 receptor (setting [3]) was 5.22 ± 1.11 nM in each case.

`COc1cc2c(cc1OC)CN(CCCCn1cc(-c3ccc(F)cc3)c3ccccc31)CC2` [CM 361]: the Ki worked out at 4710 ± 450 nM at σ-1 receptor (setting [1]) and 4.37 ± 0.33 nM on σ-2 receptor (read-out: Ki (nM) σ2).

Consider `CCCc1ccc2c(c1)oc(=O)n2CCN1CCN(C2CCCCC2)CC1` [SC-12], for which the inhibition constant (Ki) at σ-1 receptor (setting [2]) stood at 7.5 ± 0.59 nM.

For `CCC(=O)c1ccc2c(c1)oc(=O)n2CCN1CCN(C2CCCCC2)CC1` [SC-10], the Ki at σ-1 receptor (setting [2]) came out at 14.3 ± 0.34 nM.

For the compound `CC(CCCn1c(=O)sc2cc(F)ccc21)N1CCN(C2CCCCC2)CC1` (centres unmarked) [AZ-66], the inhibitory constant (Ki) at σ-1 receptor (setting [2]) was determined as 0.31 ± 0.09 nM.

As for `COc1cc2c(cc1OC)CN(CCCCn1c(=S)sc3ccccc31)CC2` [CM 308], the inhibitory constant (Ki) on σ-1 receptor (setting [1]) was 9.11 ± 1.31 nM.

As for `O=C1CSc2cc(F)ccc2N1CCCCN1CCN(C2CCCCC2)CC1` [AZ-87], the Ki at σ-1 receptor (setting [2]) was 6.24 ± 1.97 nM; on σ-2 receptor (read-out: Ki (nm) σ2), 6.45 ± 0.94 nM.

For the compound `CN1CCN(CCCCn2c(=O)oc3ccccc32)CC1` [CM 160], on σ-2 receptor (read-out: Ki (nM) σ2), the Ki came to 2380 ± 143 nM.

As to `O=c1sc2cc(Cc3ccccc3)ccc2n1CCN1CCCCCC1` [SN-81], the inhibition constant Ki was found to be 7.42 nM on σ-1 receptor (setting [1]) and 225 nM at σ-2 receptor (read-out: Ki (nM) σ2).

Take `CC(=O)c1ccc(NCCCCN2CCN(c3ccc(F)cc3)CC2)c(O)c1` [CM 623]: the Ki at σ-1 receptor (setting [1]) amounted to 29.4 ± 3.93 nM.

With `Fc1ccc2nc(SCCCCN3CCN(C4CCCCC4)CC3)sc2c1` [AZ-81], the inhibition constant Ki came to 14.3 ± 1.35 nM at σ-1 receptor (setting [2]) and 13.8 ± 1.34 nM at σ-2 receptor (read-out: Ki (nm) σ2).

Take `Fc1ccc(N2CCN(CCCCn3c(=S)sc4ccccc43)CC2)cc1` [CM 307]: the Ki at σ-1 receptor (setting [1]) was found to be 6.27 ± 0.78 nM; on σ-2 receptor (read-out: Ki (nM) σ2), 6.61 ± 1.42 nM.

With `CCC(=O)c1ccc2c(c1)sc(=O)n2CCN1CCN(C2CCCCC2)CC1` [SC-5], the Ki on σ-1 receptor (setting [2]) worked out at 6.75 ± 0.6 nM.

On to `O=c1oc2ccccc2n1CCN1CCN(CC2CCCCC2)CC1` [CM 181], for which the Ki on σ-1 receptor (setting [1]) turned out to be 2.36 ± 0.38 nM.

On to `O=c1oc2ccccc2n1CCCCN1CCN(c2ccc(F)cc2F)CC1` [CM 624], for which, on σ-1 receptor (setting [1]), the Ki came to 14.8 ± 0.71 nM.

On to `O=c1oc2ccccc2n1CCCCN1CCC(c2ccccc2)CC1` [CM 172], for which the Ki on σ-1 receptor (setting [1]) is 0.58 ± 0.22 nM.

Consider `O=c1n(CCCCN2CCN(c3ccc(F)cc3)CC2)c2ccccc2n1-c1ccc(F)cc1` [CM 322], for which the Ki on σ-1 receptor (setting [1]) came to 118 ± 48.4 nM.

For `c1ccc2oc(SCCCCN3CCN(C4CCCCC4)CC3)nc2c1` [CM 135], the inhibition constant Ki at σ-1 receptor (setting [1]) was 3.37 ± 0.28 nM.

In the case of `Cn1c(=O)n(CCCCN2CCN(c3ccc(F)cc3N=C=S)CC2)c2ccccc21` [CM 621], the figures for the Ki on σ-1 receptor (setting [1]) and on σ-2 receptor (read-out: Ki (nM) σ2) were 96.5 ± 5.8 nM and 12.6 ± 1.01 nM, respectively.

`CC(=O)c1ccc2c(c1)oc(=O)n2CC1CCCC(N2CCN(c3ccc(F)cc3)CC2)C1` (centres unmarked) [CM 657]: the figures for the Ki at σ-1 receptor (setting [1]) and at σ-2 receptor (read-out: Ki (nM) σ2) were 12.7 ± 1.06 nM and 5.99 ± 0.59 nM, respectively.

Consider `CC(=O)c1ccc2c(c1)OCC(=O)N2CCCCN1CCN(c2ccc(F)cc2)CC1` [CM 627], for which the Ki at σ-1 receptor (setting [1]) came to 25.5 ± 1.11 nM.

Take `O=c1oc2ccccc2n1CCN1CCN(c2ccc(Cl)cc2)CC1` [CM 179]: the inhibitory constant (Ki) on σ-1 receptor (setting [1]) was found to be 1430 ± 185 nM.

As to `O=c1oc2ccccc2n1CCN1CCN(C2CCCCC2)CC1` [CM 129], the Ki on σ-1 receptor (setting [1]) and on σ-1 receptor (setting [3]) was 6.9 ± 0.37 nM throughout.

`CC(=O)c1ccc2c(c1)oc(=S)n2CCCCN1CCN(c2ccc(F)cc2)CC1` [CM 625]: at σ-1 receptor (setting [1]), the Ki turned out to be 10.8 ± 0.78 nM.
